The values that follow come from patent publication US20090286723A1.

The chains behind the UniProt entries cited, without tags or fusion partners. Residues count along the entry.
UniProt P32301, 22-463 limits assumed: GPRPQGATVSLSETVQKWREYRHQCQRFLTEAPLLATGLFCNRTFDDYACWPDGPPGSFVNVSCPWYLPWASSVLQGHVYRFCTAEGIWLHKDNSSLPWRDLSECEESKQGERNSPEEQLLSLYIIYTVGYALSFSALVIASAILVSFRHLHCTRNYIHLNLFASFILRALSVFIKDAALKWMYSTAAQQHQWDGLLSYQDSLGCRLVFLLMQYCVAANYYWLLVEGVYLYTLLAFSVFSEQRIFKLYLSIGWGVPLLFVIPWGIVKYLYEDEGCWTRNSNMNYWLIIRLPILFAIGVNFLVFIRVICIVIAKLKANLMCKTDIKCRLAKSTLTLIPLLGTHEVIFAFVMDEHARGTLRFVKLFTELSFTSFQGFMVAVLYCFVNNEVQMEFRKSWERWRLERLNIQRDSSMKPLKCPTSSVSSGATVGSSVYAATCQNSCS

What all share (assay): cell-based or functional assay
The target in test [1] is GLP-1 receptor (RINm5F cell membranes) (UniProt P32301).
The target in test [2] is calcitonin receptor.
In test [3] the target is GLP-1/GIP/CT (receptors read by the GLP-1/GIP/CT cyclase assay).

For the substance “Exendin-4-(1-28)-bAla-bAla-Rat Amylin, amide (peptide)”, the Receptor Activation: GLP1 cyclase in test [1] was determined as 5.8. Besides, the Receptor Activation: CT cyclase in test [2] was found to be 108.

In test [3], “[Ac-alpha-MSH-(bAla)-(bAla)-Lys#] [Exendin-4-(1-28)-(bAla)-(bAla)-Lys(#Cys), amide] (peptide)” displayed a Receptor Activation: GLP-1/GIP/CT cyclase of 13.
